Data taken from article PMC10503797, “Allosteric modulator potentiates β2AR agonist–promoted bronchoprotection in asthma models” (The Journal of Clinical Investigation, 2023).
Several values for one entry are separate records, joined by “and”; a condition that tells them apart may be missing. Equal values may be shown once.

Assays:
[1] = test system: lung slices obtained from ovalbumin-sensitized guinea pigs; test: Ovalbumin-induced airway constriction in lung slices from ovalbumin-sensitized guinea pigs; format: cell-based, guinea pig; conditions: Exp1-5
guinea pig lung slices = test: Methacholine-induced airway constriction in guinea pig lung slices; format: cell-based; conditions: for MCh-induced airway constriction response (Figure 5D): Exp1-6
human lung slices = test: Methacholine-induced airway constriction in human lung slices; format: cell-based; conditions: for MCh-induced airway constriction response (Figure 7): donor 1-4
[2] = 10 µM Fenoterol, -Log [MCh] 7.5

## CC(Cc1ccc(O)cc1)NCC(O)c1cc(O)cc(O)c1 (stereo not drawn) [Fenoterol, fenoterol]
[1]; 0.1 µM Fenoterol, [OVA] 0.001 ng/ml
  OVA-induced airway constriction response (Figure 6): 104.3
[1]; 0.1 µM Fenoterol, [OVA] 0.1 ng/ml
  OVA-induced airway constriction response (Figure 6): 107.0 and 102.5
[1]; 0.1 µM Fenoterol, [OVA] 10 ng/ml
  OVA-induced airway constriction response (Figure 6): 101.7
[1]; 1 µM Fenoterol, [OVA] 0.001 ng/ml
  OVA-induced airway constriction response (Figure 6): 102.1
[1]; 1 µM Fenoterol, [OVA] 0.01 ng/ml
  OVA-induced airway constriction response (Figure 6): 101.8
[1]; 1 µM Fenoterol, [OVA] 0.1 ng/ml
  OVA-induced airway constriction response (Figure 6): 103.7
[1]; 1 µM Fenoterol, [OVA] 1000 ng/ml
  OVA-induced airway constriction response (Figure 6): 108.3
[1]; 1 µM Fenoterol, [OVA] 1000000 ng/ml
  OVA-induced airway constriction response (Figure 6): 104.4
Guinea pig lung slices; 1 µM Fenoterol, -Log [MCh] 7
  airway area in MCh concentration-response (Figure 5A/5C): 102.1
Guinea pig lung slices; 1 µM Fenoterol, -Log [MCh] 7.5
  airway area in MCh concentration-response (Figure 5A/5C): 108.4 and 102.4
Guinea pig lung slices; 1 µM Fenoterol, -Log [MCh] 8
  airway area in MCh concentration-response (Figure 5A/5C): 101.6 and 107.2
Guinea pig lung slices; 10 µM Fenoterol, -Log [MCh] 7
  airway area in MCh concentration-response (Figure 5A/5C): 102.0
  MCh-induced airway constriction response (Figure 5D): 102.0
Guinea pig lung slices; [2]
  airway area in MCh concentration-response (Figure 5A/5C): 104.2 and 107.5
  MCh-induced airway constriction response (Figure 5D): 104.2 and 107.5
Guinea pig lung slices; 10 µM Fenoterol, -Log [MCh] 8
  airway area in MCh concentration-response (Figure 5A/5C): 104.3 and 106.6 and 104.5
  MCh-induced airway constriction response (Figure 5D): 104.3 and 106.6 and 104.5
Guinea pig lung slices; 100 µM Fenoterol, -Log [MCh] 6.5
  MCh-induced airway constriction response (Figure 5D): 102.2
Guinea pig lung slices; 100 µM Fenoterol, -Log [MCh] 7
  MCh-induced airway constriction response (Figure 5D): 106.9
Guinea pig lung slices; 100 µM Fenoterol, -Log [MCh] 7.5
  MCh-induced airway constriction response (Figure 5D): 101.5 and 103.6
Guinea pig lung slices; 100 µM Fenoterol, -Log [MCh] 8
  MCh-induced airway constriction response (Figure 5D): 108.1 and 107.5
Human lung slices; 1 µM Fenoterol, -Log [MCh] 8.5
  MCh-induced airway constriction response (Figure 7): 101.6
Human lung slices; [2]
  MCh-induced airway constriction response (Figure 7): 101.6
Human lung slices; Homo sapiens, read-out: MCh pD2, 1 μM Fenoterol (converted)
  EC50: 102 nM
